{
  "source": "patent US4665083A",
  "about": "“Iminothiazolidine derivatives” (priority 1984, dated 1987)",
  "key": {"pentatetrazole spasm": {"test_system": "pentatetrazole spasm", "conditions": "mouse, in vivo, po", "experimental": "(6) Inhibition of pentatetrazole spasm\nThe test is performed on mice according to a modified method of Banziger and Hane."}, "maximum electroshock": {"test_system": "maximum electroshock", "conditions": "mouse, in vivo, po", "experimental": "(7) Maximum inhibition of electroshock\nThe examination is carried out on mice weighing 20 to 25 g according to Swinyard. Electroshocks having the parameters of 50 Hz, 45 mA and 0.4 sec are employed by means of corneal electrodes. The complete inhibition of the tonic spasm of the lower limb extensor is taken as the criterium of the anticonvulsive action."}},
  "data": [
    {"smiles": "CN1C(=O)OC(C)(C)C1=O", "note": "[Trimethadion, reference compound]", "values": [
      {"measurement": "Therapeutical index (inhibition of pentatetrazole spasm)", "setting": "pentatetrazole spasm", "result": 4.3},
      {"measurement": "Therapeutical index (inhibition of maximum electroshock)", "setting": "maximum electroshock", "result": 5.3}
    ]}
  ]
}
